Results on one compound are retold here after article PMC4933336, “Examining the Effects of Sodium Ions on the Binding of Antagonists to Dopamine D2 and D3 Receptors” (PLoS ONE, 2016).

Protein sequences, listed by entry. Tags and fused reporters are not part of them.
UniProt P35462, whole entry D75A: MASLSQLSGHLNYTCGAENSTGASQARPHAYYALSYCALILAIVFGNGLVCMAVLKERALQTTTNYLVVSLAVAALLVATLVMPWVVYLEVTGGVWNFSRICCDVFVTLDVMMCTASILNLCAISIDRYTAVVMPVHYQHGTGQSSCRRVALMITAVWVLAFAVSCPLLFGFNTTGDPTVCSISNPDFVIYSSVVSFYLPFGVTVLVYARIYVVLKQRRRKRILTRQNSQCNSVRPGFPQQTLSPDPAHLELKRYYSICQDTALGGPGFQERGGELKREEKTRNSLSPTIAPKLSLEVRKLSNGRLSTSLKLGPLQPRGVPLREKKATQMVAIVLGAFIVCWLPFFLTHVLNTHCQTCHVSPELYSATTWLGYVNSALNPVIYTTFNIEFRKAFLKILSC
UniProt P35462, whole entry: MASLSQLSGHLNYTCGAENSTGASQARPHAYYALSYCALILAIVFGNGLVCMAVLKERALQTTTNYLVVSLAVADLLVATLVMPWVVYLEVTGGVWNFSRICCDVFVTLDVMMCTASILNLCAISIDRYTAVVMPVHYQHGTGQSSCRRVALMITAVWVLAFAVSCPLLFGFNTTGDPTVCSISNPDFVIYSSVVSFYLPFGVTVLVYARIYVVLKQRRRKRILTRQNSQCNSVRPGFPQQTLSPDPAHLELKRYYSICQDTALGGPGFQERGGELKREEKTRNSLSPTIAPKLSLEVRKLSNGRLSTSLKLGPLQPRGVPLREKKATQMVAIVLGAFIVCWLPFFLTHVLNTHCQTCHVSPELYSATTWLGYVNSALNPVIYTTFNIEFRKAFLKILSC

The target of experiment [1] is T1, dopamine D3 receptor (D3), c-myc tagged, U-2 OS (Homo sapiens, UniProt P35462, D75A).
T1 construct: gene DRD3; full-length, N-terminal c-myc tag; membranes of U-2 OS cells (BacMam)
Description: [3H]spiperone competition binding, U-2 OS membranes.

Experiment [2] deals with T2, dopamine D3 receptor (D3), c-myc tagged, U-2 OS (Homo sapiens, UniProt P35462).
T2 construct: gene DRD3; full-length, N-terminal c-myc tag; membranes of U-2 OS cells (BacMam)
The description is as above.

Regarding `CCN1CCC[C@H]1CNC(=O)c1cc(S(N)(=O)=O)ccc1OC` [sulpiride], the IC50 was 2 µM in experiment [1] and 0.182 µM in experiment [2].
